Results as given in patent publication US11807835B2, “Detergent compositions containing a stabilized enzyme by phosphonates” (ECOLAB USA INC., priority 2016, dated 2023).

Test system: enzyme (protease, amylase, lipase)
Assay: Overall effects of phosphonates on enzyme activity (Table 3)
Assay type: biochemical
Details: overall effect of the phosphonate on enzyme activity in the detergent use solution

Question: `OCCN(CCO)CCO` was tested. Which “Stability (effects on enzyme activity)” value did it give?
Answer: Yes, when neu- tralized with a phos- phonate
